Laboratory results published in PMC12903857.
Non-standard residues stand in square brackets, D forms with d. Residues, ends and D or L forms follow the SMILES beside them. pS = N[C@@H](COP(=O)(O)O)C(=O)O

Columns and labels:
14-3-3σ = biological target: T1, 14-3-3σ (Homo sapiens, UniProt P31947); assay: SPR, binary interaction of 12-mer RAF peptides
T1 sequence (P31947 1-248): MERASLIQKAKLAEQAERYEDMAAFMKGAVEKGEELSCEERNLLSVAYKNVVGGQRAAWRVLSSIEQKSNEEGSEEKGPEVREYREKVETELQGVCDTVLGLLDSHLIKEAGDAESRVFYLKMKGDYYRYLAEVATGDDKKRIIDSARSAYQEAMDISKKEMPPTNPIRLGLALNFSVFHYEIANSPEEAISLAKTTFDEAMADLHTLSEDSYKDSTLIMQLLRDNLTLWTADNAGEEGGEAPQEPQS

C-RAF pS259 [1] = assay: Protection of phosphorylation, Western blot, MIA PaCa-2 cells; assay type: cell-based; conditions: endogenous C-RAF pS259 relative to total C-RAF
C-RAF pS259 [2] = assay: Protection of phosphorylation, Western blot, HEK293T cells; assay type: cell-based; conditions: 10 μΜ compound, relative to total C-RAF
A-RAF pS214 = assay: Protection of phosphorylation of A-RAF pS214 site, Western blot, HEK293T cells; assay type: cell-based

Compound: CC[C@H](C)[C@H](NC(=O)[C@H](CCCNC(=N)N)NC(C)=O)C(=O)N[C@@H](CCCNC(=N)N)C(=O)N[C@@H](CO)C(=O)N[C@H](C(=O)N[C@@H](COP(=O)(O)O)C(=O)N[C@H](C(=O)N1CCC[C@H]1C(=O)N[C@@H](CC(N)=O)C(=O)N[C@H](C(=O)N[C@@H](Cc1c[nH]cn1)C(=O)N[C@@H](CCSC)C(N)=O)C(C)C)[C@@H](C)O)[C@@H](C)O [A-RAF (12-mer), RIRST{pS}TPNVHM] (Ac-RIRST[pS]TPNVHM-NH2; N-terminus and C-terminus assumed)
- kon (14-3-3σ; read-out: ka, single replicates, binary, kinetic fit, Replicate 1 and 2): 132000 M⁻¹ s⁻¹

Compound: CSCC[C@H](NC(=O)[C@H](Cc1c[nH]cn1)NC(=O)[C@@H](NC(=O)[C@H](CC(N)=O)NC(=O)[C@@H]1CCCN1C(=O)[C@@H](NC(=O)[C@H](COP(=O)(O)O)NC(=O)[C@@H](NC(=O)[C@H](CO)NC(=O)[C@H](CCCNC(=N)N)NC(=O)[C@H](CCC(N)=O)NC(=O)[C@H](CCCNC(=N)N)NC(C)=O)[C@@H](C)O)[C@@H](C)O)C(C)C)C(N)=O [C-RAF (12-mer), RQRST{pS}TPNVHM] (Ac-RQRST[pS]TPNVHM-NH2; N-terminus and C-terminus assumed)
- koff (14-3-3σ; read-out: kd / koff, Average ± SD, binary, kinetic fit, n = 2): 0.352 s⁻¹

Compound: O=C(CCl)NCC1CCN(S(=O)(=O)c2ccc(Br)cc2)CC1 [Compound 22]
- C-RAF pS259 protection fold change (MIA PaCa-2) (C-RAF pS259 [1]): 1.4 fold
- C-RAF pS259 protection fold change (HEK293T) (C-RAF pS259 [2]): 2.4 fold
- A-RAF pS214 protection fold change (HEK293T) (A-RAF pS214): 1.2 fold
